In PubChem BioAssay AID952 (NMMLSC, 2007):
The entries are a selection whose mix differs from that of the whole data set. Activity calls are given as the source filed them. Rule as the data show it: active = inhibition above about 40%.

Amino acid sequences for entries named in this document (tags omitted). A change or cut given only in a name is not applied to a line headed by its entry.
UniProt Q92843: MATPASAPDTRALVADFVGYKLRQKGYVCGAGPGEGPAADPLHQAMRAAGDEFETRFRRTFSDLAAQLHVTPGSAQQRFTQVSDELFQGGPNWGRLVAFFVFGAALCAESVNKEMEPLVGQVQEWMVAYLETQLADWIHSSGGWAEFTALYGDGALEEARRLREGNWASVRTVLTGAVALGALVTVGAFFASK

Target: Bcl-2-like protein 2 (Homo sapiens) (UniProt Q92843)
Assay: Bcl-W/Bim complex disruptors – biochemical, multiplexed, bead-based flow cytometry, primary screen (AID 952);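 also: 0% = bound tracer without compound and 100% = peptide blocker; higher means less fluorescent Bim peptide bound to Bcl-W beads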
Details: Bim peptide-Bcl-W binding, at 10 µM, active compounds read high

Row | Structure (SMILES) | inhibition
1 | COc1ccc(N/C(=N/P(=O)(N2CCOCC2)N2CCOCC2)N2CCOCC2)cc1 | inactive: -3%
2 | COc1ccc2nc(NP(=O)(c3ccccc3)c3ccccc3)sc2c1 | inactive: -1%
3 | O=C(OC1CN2CCC1CC2)C12CC3CC(CC(C3)C1)C2 (centres undefined) | inactive: -1%
4 | Cc1cc(=O)[nH]c(N[N+](=O)[O-])n1 | inactive: -2%
5 | Cc1c2c(nc3ccccc13)SC(C(Cl)Cl)C2 (centres undefined) | inactive: -4%
6 | CC(C)NC(=O)NP(=O)(Oc1ccccc1)Oc1ccccc1 | inactive: -3%
7 | CCN(CC)C(=S)SC(NC=O)C(Cl)(Cl)Cl (centres undefined) | inactive: -1%
8 | O=[N+]([O-])c1cc([N+](=O)[O-])c(-c2ccn[nH]2)s1 | inactive: -2%
9 | ClCCSc1nnc(-c2cccnc2)o1 | inactive: -6%
10 | Cc1ccc2nc3c(c(C)c2c1)CC(C(Cl)Cl)S3 (centres undefined) | inactive: -4%
11 | O=P(Nc1ccccn1)(c1cccc2ccccc12)c1cccc2ccccc12 | inactive: -2%
12 | Cc1cc(SC(NC=O)C(Cl)(Cl)Cl)ncn1 (centres undefined) | inactive: -3%
13 | Cc1cc(SC(NC(=O)c2ccccc2)C(Cl)(Cl)Cl)nc(C(C)C)n1 (centres undefined) | inactive: -2%
14 | CCC(C)N(CC(C)C)C(=S)SC(NC(C)=O)C(Cl)(Cl)Cl (centres undefined) | inactive: 2%
15 | O=C(COc1ccccc1)OC1CN2CCC1CC2 (centres undefined) | inactive: 0%
16 | COP1(=S)c2c(C)nn(CCC#N)c2N=C(c2ccc(F)cc2)N1C (centres undefined) | inactive: 0%
17 | CC(C)/C=N\N=C(\N)N[N+](=O)[O-] | inactive: -1%
18 | CN(C(=O)Cc1ccc(Cl)c(Cl)c1)[C@@H]1CCCC[C@H]1N1CCCC1 | inactive: -2%
19 | Clc1n[nH]nc1-c1nn[nH][15n]1 | inactive: -3%
20 | O=P1(Nc2ccccn2)COc2ccccc2OC1 | inactive: 0%
21 | Cc1ccc(OCC(=O)OC2CN3CCC2CC3)cc1 (centres undefined) | inactive: 2%
22 | O=P1(Nc2ccc(Br)cn2)COc2ccccc2OC1 | inactive: -4%
23 | O=P1(Nc2ncccn2)COc2ccccc2OC1 | inactive: 0%
24 | CN(C)C1(CNC(=O)c2ccc(S(C)(=O)=O)cc2)CCCCC1 | inactive: -3%
25 | Cc1nn(-c2ccccc2)c2c1P(=O)(N1CCOCC1)N(C)C(c1ccccc1)=N2 (centres undefined) | inactive: 1%
26 | CC1CCC(C(C)C)C(OP(=O)(Nc2ccccn2)c2ccccc2)C1 (centres undefined) | inactive: 0%
27 | O=[N+]([O-])c1ccc2c(c1)nnn2O | inactive: -3%

Row | Structure (SMILES) | inhibition
28 | CCOP1(=S)c2c(C)nn(CCC#N)c2N=C(c2ccc(F)cc2)N1C (centres undefined) | inactive: -3%
29 | CCOP1(=S)c2c(C)nn(CCC#N)c2N=C(c2ccccc2F)N1C (centres undefined) | inactive: -1%
30 | O=P(Nc1nccs1)(Oc1ccccc1)Oc1ccccc1 | inactive: 0%
31 | O=P(Nc1nccs1)(c1ccccc1)c1nc2ccccc2s1 (centres undefined) | inactive: 0%
32 | COc1cc(C2NCCC3(OCCO3)C2(C)C)cc(OC)c1OC (centres undefined) | inactive: 3%
33 | CCOP(=O)(Nc1cccc2ccccc12)OCC | inactive: -4%
34 | Cc1ccc(NCCc2c([N+](=O)[O-])cc([N+](=O)[O-])cc2[N+](=O)[O-])cc1 | inactive: -2%
35 | Cc1cccc(OCC(=O)OC2CN3CCC2CC3)c1 (centres undefined) | inactive: 10%
36 | COc1cc(C(=O)NCC2(N3CCOCC3)CCCCC2)cc(Cl)c1OC(C)C | inactive: -3%
37 | CC(=O)Nc1ccc(Oc2c([N+](=O)[O-])cc([N+](=O)[O-])cc2[N+](=O)[O-])cc1 | inactive: 3%
38 | CC(C)(C)C(=O)NC(Sc1ccccc1)C(Cl)(Cl)Cl (centres undefined) | inactive: 0%
39 | O=P1(Nc2nc3ccc(Cl)cc3s2)COc2ccccc2O1 (centres undefined) | inactive: 0%
40 | CCOc1ccc(C2=NCC(CBr)S2)cc1 (centres undefined) | inactive: 0%
41 | O=c1c2cc([N+](=O)[O-])ccc2[nH]c2c([N+](=O)[O-])cc([N+](=O)[O-])cc12 | inactive: -1%
42 | COC(=O)c1cc2c(s1)N=C(c1ccccc1)N(C)P2(=O)N1CCOCC1 (centres undefined) | inactive: 1%
43 | CC(=O)NC(SC(=S)N(CC(C)C)CC(C)C)C(Cl)(Cl)Cl (centres undefined) | inactive: -1%
44 | Cc1ccc(OP(=O)(Nc2ccccn2)Oc2ccc(C)cc2)cc1 | inactive: -1%
45 | CCC(=O)N1C2C3N(C(=O)CC)C1C1N(C(=O)CC)C(C(N1C(=O)CC)N3C(=O)CC)N2C(=O)CC | inactive: 9%
46 | CCNC(=S)/N=C(\N)N[N+](=O)[O-] | inactive: 0%
47 | O=C(NC1CCS(=O)(=O)C1)NP(=S)(Oc1ccccc1)Oc1ccccc1 (centres undefined) | inactive: -1%
48 | c1ccc(-c2nn[nH]n2)c(-c2nn[nH]n2)c1 | inactive: 12%
49 | CCOC(=O)NC(Sc1ccccc1)C(Cl)(Cl)Cl (centres undefined) | inactive: -5%
50 | C(Cc1nn[nH]n1)Cc1nn[nH]n1 | inactive: -3%
51 | O=C(OC1CN2CCC1CC2)c1cccc(Cl)c1 (centres undefined) | inactive: 0%
52 | CC(=O)NC(SC(=S)N(C)C)C(Cl)(Cl)Cl (centres undefined) | inactive: -5%
53 | O=P(Nc1ccccn1)(c1ccc(Br)cc1)c1ccc(Br)cc1 | inactive: 0%
54 | c1nnnn1CCn1cnnn1 | inactive: 0%

Row | Structure (SMILES) | inhibition
55 | CC(C)C(=O)NC(Sc1ccccc1)C(Cl)(Cl)Cl (centres undefined) | inactive: -6%
56 | O=P(Nc1nccs1)(c1ccccc1)c1ccccc1 | inactive: 0%
57 | CC(C)=N/N=C(\N)N[N+](=O)[O-] | inactive: -3%
58 | CN(C)C(=O)OCCc1n(C)cc[n+]1C | inactive: -5%
59 | CC1CCN(C(=O)Oc2c(Cl)cc(Cl)c3cccnc23)CC1 | inactive: -3%
60 | CCN(/C(=N/P(=O)(N1CCOCC1)N1CCOCC1)N1CCOCC1)c1ccc(OC)cc1 | inactive: 0%
61 | O=[N+]([O-])c1cccc2n[nH]nc12 | inactive: 5%
62 | CC(=O)N1C2C3N(C(C)=O)C1C1N(C(C)=O)C(C(N1C(C)=O)N3C(C)=O)N2C(C)=O | inactive: 0%
63 | Cc1ccc(NP(=O)(Oc2ccccc2)Oc2ccccc2)nc1 | inactive: 1%
64 | CCc1nc2c(n1)c1c(non1O)c1c2no[n+]1[O-] | inactive: 34%
65 | O=[N+]([O-])c1cc([N+](=O)[O-])c(CCNc2ccccc2)c([N+](=O)[O-])c1 | inactive: 4%
66 | COc1ccc(C2=NCC(CBr)S2)cc1 (centres undefined) | inactive: 0%
67 | O=[N+]([O-])c1ncn(CCn2ncnc2[N+](=O)[O-])n1 | inactive: 0%
68 | CCN(N=Nc1nonc1N)c1nonc1N | inactive: -5%
69 | Cc1cc(SC(NC(=O)c2ccc(F)cc2)C(Cl)(Cl)Cl)ncn1 (centres undefined) | inactive: -6%
70 | CCOP(=O)(Nc1ccccc1)OCC | inactive: 1%
71 | CC(C)CC(=O)NC(Sc1ccc(Cl)cc1)C(Cl)(Cl)Cl (centres undefined) | inactive: 7%
72 | Oc1ccccc1CNc1ccccn1 | inactive: -2%
73 | O=C(NC(Sc1ccncn1)C(Cl)(Cl)Cl)c1ccccc1 (centres undefined) | inactive: -5%
74 | Cc1c2non([O-])c-2c(C)[n+](=O)[n+]1[O-] | inactive: 1%
75 | COc1ccccc1OP(=O)(Nc1ccc(C)cn1)Oc1ccccc1OC | inactive: 1%
76 | CN1CCCC(OC(=O)C(c2ccccc2)c2ccccc2)C1 (centres undefined) | inactive: -2%
77 | Clc1ccc(Cl)c(NC2=NCC(CBr)S2)c1 (centres undefined) | inactive: -1%
78 | NC(=O)c1cc([N+](=O)[O-])cc([N+](=O)[O-])c1N | inactive: 0%
79 | Cc1ccc(N/C(=N/P(=O)(N2CCOCC2)N2CCOCC2)N2CCOCC2)cc1 | inactive: -1%
